MLL AF4-AF9 inh: inhibitors of AF4 peptide binding to AF9, primary screen, biochemical, AlphaScreen, biotin-AF4 peptide, FLAG-AF9, single point | inhibition, % at 10 µM | 350,000 tested, 0.47% active | Protein AF-9 (Homo sapiens), P42568 | AID 651704, 2012;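 active = every replicate reaching a set inhibition limit, whatever the replicate mean, cut at about 25% in these data; inconclusive = mean inhibition reaches that limit but some replicates miss it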;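 also: 0% = plate neutral control median and 100% = total signal loss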
SIRT5 inh: SIRT5 desuccinylase inhibitors, primary screen, biochemical, fluorescence imaging, single point, set 5. NAD-dependent protein deacylase sirtuin-5, mitochondrial (Homo sapiens), Q9NXA8. Purified SirT5, succinyl-peptide AMC, trypsin-coupled fluorescence. inhibition, % at 15 µM. 330,000 tested, 1.1% active. AID 652115, 2013; in the data active = inhibition above about 15%; inconclusive = no clear call, values can overlap the other calls
E-selectin induc: E-selectin induction in HUVECs, primary screen, imaging, HUVEC, immunofluorescence imaging, single point | P16581 | normalized: neutral wells 0, TNF-alpha wells 100 | activation, % at 7.58 µM | 260,000 tested, 0.37% active;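 active = mean E-selectin-positive cell signal at least 10% of the positive control, reached in at least 60% of replicates, without over 20% cell loss; inconclusive = no rule given, readout overlaps actives, possibly toxicity-flagged; inactive = the rest, including those meeting only one limit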
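Assay system: HUVEC, human umbilical vein endothelial cells / Amount: 3,000 HUVEC/well / Controls: TNF-alpha positive control, DMSO neutral control / Compound dosing: single concentration / Medium: EGM-2 over gelatin coat / Evaluation: percent E-selectin-positive cells / Signal: immunofluorescence imaging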
UUG fidelity: modulators of start codon recognition fidelity in yeast. activity score, % at 18.7 µM. S. cerevisiae UUG-firefly luciferase reporter, luminescence/redox ratio. 350,000 compounds, 0.13% hits;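 active means replicate mean at a twofold rise or more, about +100% in these data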;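 further: firefly luciferase made from a UUG start codon reports start codon fidelity; reporter light over untreated wells divided by growth signal over untreated wells; some hits fall short of that in this replicate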
RAD54 branch: inhibitors of human RAD54 branch migration, primary screen, biochemical, fluorescence, single point; DNA repair and recombination protein RAD54-like (Homo sapiens), Q92698; RAD54 Holliday junction branch migration, FAM/BHQ fluorescence; inhibition, % at 10.4 µM; 360,000 tested, 0.14% active; AID 602329, 2012;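 active = mean normalized replicate activity at least 40 and at least half of replicates scoring 40 or more; inconclusive = only one of the two criteria met; inactive = mean below 40 and under half of replicates reaching 40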;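 also: 0% = median of neutral control wells and 100% = median of positive control wells; inhibitors cause a drop in the FAM fluorescence signal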
RAD52 inh: RAD52 DNA annealing inhibitors, primary screen, biochemical, FRET, single point, set 2 | DNA repair protein RAD52 homolog (Homo sapiens), P43351 | recombinant RAD52 DNA annealing, FRET fluorescence | inhibition, % at 18.7 µM | 360,000 tested, 0.46% active;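 active = every replicate showing at least 50% inhibition; inconclusive = mean inhibition at least 50% but not in every replicate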
Rad54 DNA ctr: DNA binding of candidate compounds, dose response, artefact control for RAD54 inhibitor project, biochemical, fluorescence polarization, cherry-pick; shares compounds with RAD54 branch; Acridine orange-DNA displacement, 20 min; AC50, µM (series often up to 35 µM), for the others: at the top dose activity change, negative = DNA binding; 460 tested, 8% active; AID 651673, 2012;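 active = signal drop giving an AC50 within twice the top valid tested concentration of each sample, actives reach about 35 µM in these data; inactive = activity opposite to expected, plus the rest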;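 also: polarization loss reports compound binding to salmon sperm DNA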
An asterisk follows results filed as active; ? = inconclusive; nt = no result. Shown are actives, neighbours in structure and some others; about 1.8% of the full set was active somewhere.

The chains behind the UniProt entries cited, without tags or fusion partners.
Protein AF-9 (Homo sapiens), P42568, UniProt P42568, whole entry, looked up: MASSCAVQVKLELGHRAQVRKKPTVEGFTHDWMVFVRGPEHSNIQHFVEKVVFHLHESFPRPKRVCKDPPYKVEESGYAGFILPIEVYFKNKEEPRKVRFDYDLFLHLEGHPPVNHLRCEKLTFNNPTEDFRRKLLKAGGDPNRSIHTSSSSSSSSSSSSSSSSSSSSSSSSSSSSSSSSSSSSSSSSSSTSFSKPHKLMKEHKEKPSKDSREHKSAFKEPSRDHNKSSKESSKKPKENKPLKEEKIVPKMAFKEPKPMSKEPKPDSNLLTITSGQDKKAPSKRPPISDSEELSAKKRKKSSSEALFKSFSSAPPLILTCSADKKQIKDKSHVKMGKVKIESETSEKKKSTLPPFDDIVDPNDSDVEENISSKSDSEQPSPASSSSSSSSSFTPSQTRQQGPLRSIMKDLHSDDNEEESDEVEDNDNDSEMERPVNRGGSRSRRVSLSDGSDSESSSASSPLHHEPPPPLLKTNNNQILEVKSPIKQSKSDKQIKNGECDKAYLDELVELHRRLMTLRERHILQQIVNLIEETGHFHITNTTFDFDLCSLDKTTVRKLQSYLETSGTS
DNA repair and recombination protein RAD54-like (Homo sapiens), Q92698, UniProt Q92698, whole entry, looked up: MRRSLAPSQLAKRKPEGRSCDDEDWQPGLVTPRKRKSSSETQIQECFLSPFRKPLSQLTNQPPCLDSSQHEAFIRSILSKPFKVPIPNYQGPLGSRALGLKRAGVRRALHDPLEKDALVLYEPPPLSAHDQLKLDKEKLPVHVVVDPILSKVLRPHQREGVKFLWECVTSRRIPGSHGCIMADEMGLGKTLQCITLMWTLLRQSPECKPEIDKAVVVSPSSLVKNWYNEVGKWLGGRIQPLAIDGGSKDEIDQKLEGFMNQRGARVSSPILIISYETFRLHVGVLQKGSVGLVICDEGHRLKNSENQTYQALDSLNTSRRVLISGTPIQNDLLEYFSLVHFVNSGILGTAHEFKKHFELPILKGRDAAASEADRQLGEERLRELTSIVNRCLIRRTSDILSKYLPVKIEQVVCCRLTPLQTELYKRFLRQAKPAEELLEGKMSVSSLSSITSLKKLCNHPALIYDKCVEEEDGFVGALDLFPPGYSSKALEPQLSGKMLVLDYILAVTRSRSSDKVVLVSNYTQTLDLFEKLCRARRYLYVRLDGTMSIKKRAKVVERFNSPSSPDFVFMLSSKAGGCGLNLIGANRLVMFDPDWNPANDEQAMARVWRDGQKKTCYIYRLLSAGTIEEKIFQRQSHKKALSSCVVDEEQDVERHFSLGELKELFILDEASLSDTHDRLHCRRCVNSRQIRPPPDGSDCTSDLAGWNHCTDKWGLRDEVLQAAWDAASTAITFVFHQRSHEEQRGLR
DNA repair protein RAD52 homolog (Homo sapiens), P43351, UniProt P43351, whole entry, looked up: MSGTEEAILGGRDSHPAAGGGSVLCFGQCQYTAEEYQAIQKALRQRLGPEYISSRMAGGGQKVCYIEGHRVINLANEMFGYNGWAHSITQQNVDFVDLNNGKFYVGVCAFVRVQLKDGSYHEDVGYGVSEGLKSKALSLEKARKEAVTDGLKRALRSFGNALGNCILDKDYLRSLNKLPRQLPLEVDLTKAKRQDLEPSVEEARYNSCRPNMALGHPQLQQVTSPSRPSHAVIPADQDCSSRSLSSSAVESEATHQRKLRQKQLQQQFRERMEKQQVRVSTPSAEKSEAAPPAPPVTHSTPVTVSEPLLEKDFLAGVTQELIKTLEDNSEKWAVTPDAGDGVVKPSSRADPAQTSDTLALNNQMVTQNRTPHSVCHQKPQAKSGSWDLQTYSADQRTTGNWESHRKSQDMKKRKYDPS

SMILES	MLL AF4-AF9 inh	SIRT5 inh	E-selectin induc	UUG fidelity	RAD54 branch	RAD52 inh	others
O=C(NCCc1ccccc1)c1cc(-c2ccccc2)c(N2CCOCC2)s1	0	nt	0	-8	-4	-16
CCN(CC)CCCNC(=O)c1cc(-c2ccccc2)c(N2CCCCC2)s1	29*	-2	0	4	13	22
C[C@H](CO)N1C[C@H](C)[C@H](CN(C)Cc2ccccc2)Oc2c(NS(C)(=O)=O)cccc2C1=O	0	2	0	-5	-14	-5
CN1CCN(NC(=S)Nc2ccc(Oc3ccccc3)cc2)CC1	3	6	223*	nt	nt	2
COc1cccc(NC(=S)NN2CCN(C)CC2)c1	nt	nt	nt	-25	9	nt
Cc1ccc(OCCSc2nc3ccccc3n2CCC(=O)O)cc1	2	21*	0	-3	7	-9
C[C@H]1CN([C@@H](C)CO)C(=O)Cc2cc(NC(=O)Cc3ccccc3)ccc2O[C@H]1CN(C)Cc1ccc(Oc2ccccc2)cc1	-1	17*	6	10	3	16
C[C@@H]1CN([C@H](C)CO)C(=O)Cc2cc(NC(=O)Cc3ccccc3)ccc2O[C@@H]1CN(C)Cc1ccc(Oc2ccccc2)cc1	1	14	-8	13	3	7
CC(C)NC(=O)Nc1ccc2c(c1)CC(=O)N([C@H](C)CO)C[C@@H](C)[C@H](CN(C)Cc1ccc(Oc3ccccc3)cc1)O2	5	1	45*	1	0	-10
CC(C)NC(=O)Nc1ccc2c(c1)CC(=O)N([C@@H](C)CO)C[C@@H](C)[C@@H](CN(C)Cc1ccc(Oc3ccccc3)cc1)O2	7	2	-4	23	-11	-7
C[C@@H]1CN([C@@H](C)CO)C(=O)Cc2cc(NC(=O)c3ccncc3)ccc2O[C@H]1CN(C)Cc1ccc(Oc2ccccc2)cc1	20	12	313*	5	-12	-31
CC(C)NC(=O)Nc1ccc2c(c1)CC(=O)N([C@H](C)CO)C[C@H](C)[C@@H](CN(C)Cc1ccc(Oc3ccccc3)cc1)O2	11	13	37*	-4	9	31
C[C@@H]1CN([C@H](C)CO)C(=O)Cc2cc(NC(=O)c3ccncc3)ccc2O[C@@H]1CN(C)Cc1ccc(Oc2ccccc2)cc1	7	6	-6	2	18	-24
C[C@@H]1CN([C@@H](C)CO)C(=O)c2cccc(NS(C)(=O)=O)c2O[C@H]1CN(C)Cc1ccc(C(=O)Nc2ccccc2N)cc1	6	-2	nt	nt	nt	-1
O=C(C[C@@H]1C=C[C@@H](NC(=O)NC2CCCCC2)[C@H](CO)O1)NCc1ccccc1	-2	1	0	-5	-5	1
COC(=O)C[C@H]1CC[C@@H]2[C@@H](COc3ccc(NC(=O)c4cccc(Cl)c4)cc3C(=O)N2C)O1	-16	16*	0	nt	-1	9
COCCNC(=O)C[C@@H]1CC[C@H]2[C@H](COc3ccc(NC(=O)Nc4cccc(F)c4)cc3C(=O)N2C)O1	-1	23*	0	-3	3	-11
COCCNC(=O)C[C@@H]1CC[C@@H]2[C@H](COc3ccc(NC(=O)Nc4cccc(F)c4)cc3C(=O)N2C)O1	-2	1	0	1	3	-10
CN1C(=O)c2cc(NC(=O)Nc3ccc(Cl)cc3)ccc2OC[C@H]2O[C@H](CC(=O)NCCN3CCCCC3)CC[C@@H]21	5	0	0	nt	6	31
CN1C(=O)c2cc(NC(=O)Nc3ccc(Cl)cc3)ccc2OC[C@@H]2O[C@@H](CC(=O)NCCN3CCCCC3)CC[C@@H]21	12	-4	0	nt	7	57*
CN1CCN(C(=S)c2cn(Cc3ccccc3)c3ccccc23)CC1	12	3	3	-20	6	-18
CN1CCN(C(=S)c2cn(Cc3ccc(Br)cc3)c3ccccc23)CC1	27*	-2	nt	nt	nt	-4
CC(Sc1nc(-c2ccc(F)cc2)cs1)C(=O)N1c2ccccc2CC1C (stereo unspecified)	1	26*	nt	nt	nt	-21
COc1ccc(S(=O)(=O)Nc2ccc3c(c2)C(=O)N([C@H](C)CO)C[C@@H](C)[C@H](CN(C)S(=O)(=O)c2ccc(OC)cc2)OCCCC[C@@H](C)O3)cc1	nt	nt	0	-14	-8	nt
CCOC(=O)c1c(C)n(C)c2ccc(OCC(O)CN3CCC(C)CC3)cc12 (stereo unspecified)	2	nt	nt	-5	?	26	Rad54 DNA ctr=-8%

Compounds above containing an aryl methoxy group (2):
SMILES	MLL AF4-AF9 inh	SIRT5 inh	E-selectin induc	UUG fidelity	RAD54 branch	RAD52 inh	others
COc1cccc(NC(=S)NN2CCN(C)CC2)c1	nt	nt	nt	-25	9	nt
COc1ccc(S(=O)(=O)Nc2ccc3c(c2)C(=O)N([C@H](C)CO)C[C@@H](C)[C@H](CN(C)S(=O)(=O)c2ccc(OC)cc2)OCCCC[C@@H](C)O3)cc1	nt	nt	0	-14	-8	nt

(next part)
SMILES	MLL AF4-AF9 inh	SIRT5 inh	E-selectin induc	UUG fidelity	RAD54 branch	RAD52 inh	others
C[C@@H]1CCCCO[C@H](CN(C)S(C)(=O)=O)[C@@H](C)CN([C@@H](C)CO)C(=O)c2cc(NS(=O)(=O)c3ccc(F)cc3)ccc2O1	-1	4	0	17	0	0
COc1cc2c(C#N)c(N3CCN(C)CC3)nc(N)c2c(N)n1	nt	nt	nt	-18	71*	nt	Rad54 DNA ctr=-17%
Cc1ccc(-c2cnc3c(c2)C(=O)N([C@@H](C)CO)C[C@H](C)[C@H](CN(C)Cc2ccccc2C(=O)O)O3)cc1	-4	8	nt	12	6	-5
Cc1ccc2nc3c(cc(C(=O)NCCN4CCOCC4)c(=N)n3CCCN3CCOCC3)c(=O)n2c1	nt	nt	nt	-21	66*	nt	Rad54 DNA ctr=-15%
Cc1ccc2nc3c(cc(C(=O)NCCc4ccccc4)c(=N)n3CCN3CCOCC3)c(=O)n2c1	nt	nt	nt	10	10	nt
COc1cc2[nH]c3c(=O)n(CCN4CCCCC4)cnc3c2cc1OC	nt	nt	nt	-17	55*	nt	Rad54 DNA ctr=-15%
COc1ccc(OC)c2c(C)cc(NCCN3CCOCC3)nc12	nt	nt	nt	-7	54*	nt	Rad54 DNA ctr=-10%
CCOc1cc2[nH]c(=O)n(Cc3ccc(C(=O)NCCCN4CCC(C)CC4)cc3)c(=O)c2cc1OCC	4	1	2	0	60*	48	Rad54 DNA ctr=-9%
CN(C)C(=O)c1ccc(-c2ccc3c(c2)[C@H]2[C@H](CCN2C(=O)c2ccc4c(c2)OCO4)[C@@H](CO)N3)cc1	nt	nt	0	3	12	nt
O=C(NN1CCOCC1)c1cc(-c2ccccc2)nc2ccccc12	nt	nt	nt	-35	-6	nt
O=C(NN1CCOCC1)c1cc(-c2ccc(Cl)c(Cl)c2)nc2ccccc12	nt	nt	0	-7	?	nt	Rad54 DNA ctr=7%
O=C(O)C[C@H]1C=C[C@@H](NC(=O)c2ccncc2)[C@H](CO)O1	-1	-3	0	-25	-4	-6

Three successive entries out of the list so far:
SMILES	MLL AF4-AF9 inh	SIRT5 inh	E-selectin induc	UUG fidelity	RAD54 branch	RAD52 inh	others
O=C(NN1CCOCC1)c1cc(-c2ccccc2)nc2ccccc12	nt	nt	nt	-35	-6	nt
O=C(NN1CCOCC1)c1cc(-c2ccc(Cl)c(Cl)c2)nc2ccccc12	nt	nt	0	-7	?	nt	Rad54 DNA ctr=7%
O=C(O)C[C@H]1C=C[C@@H](NC(=O)c2ccncc2)[C@H](CO)O1	-1	-3	0	-25	-4	-6

Source: PubChem BioAssay
